{"sequences": {"note": "Chains of the proteins cited; added tags and fusions are not shown.", "UniProt P30874, whole entry, species assumed": "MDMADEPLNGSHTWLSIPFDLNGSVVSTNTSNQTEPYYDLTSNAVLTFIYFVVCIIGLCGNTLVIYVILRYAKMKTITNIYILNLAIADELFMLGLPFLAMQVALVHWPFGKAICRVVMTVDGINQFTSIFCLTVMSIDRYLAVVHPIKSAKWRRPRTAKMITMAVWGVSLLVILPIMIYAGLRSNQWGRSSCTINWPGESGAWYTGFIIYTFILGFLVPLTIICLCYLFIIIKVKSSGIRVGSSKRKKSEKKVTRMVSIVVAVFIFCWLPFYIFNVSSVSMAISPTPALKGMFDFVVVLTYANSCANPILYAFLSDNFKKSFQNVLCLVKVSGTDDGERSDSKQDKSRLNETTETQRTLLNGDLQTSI", "UniProt P32745, whole entry, species assumed": "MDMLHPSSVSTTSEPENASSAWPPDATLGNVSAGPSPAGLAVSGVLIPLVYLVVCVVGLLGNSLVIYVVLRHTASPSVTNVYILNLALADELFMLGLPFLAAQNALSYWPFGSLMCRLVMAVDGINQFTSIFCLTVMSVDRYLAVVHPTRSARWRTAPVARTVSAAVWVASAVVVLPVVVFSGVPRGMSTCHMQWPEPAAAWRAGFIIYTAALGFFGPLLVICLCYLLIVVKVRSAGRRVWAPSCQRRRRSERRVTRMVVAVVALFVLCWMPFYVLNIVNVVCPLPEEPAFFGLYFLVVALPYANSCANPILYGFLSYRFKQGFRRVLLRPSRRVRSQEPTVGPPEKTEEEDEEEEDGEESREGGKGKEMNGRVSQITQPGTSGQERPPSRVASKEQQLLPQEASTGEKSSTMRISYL", "UniProt P35346, whole entry, species assumed": "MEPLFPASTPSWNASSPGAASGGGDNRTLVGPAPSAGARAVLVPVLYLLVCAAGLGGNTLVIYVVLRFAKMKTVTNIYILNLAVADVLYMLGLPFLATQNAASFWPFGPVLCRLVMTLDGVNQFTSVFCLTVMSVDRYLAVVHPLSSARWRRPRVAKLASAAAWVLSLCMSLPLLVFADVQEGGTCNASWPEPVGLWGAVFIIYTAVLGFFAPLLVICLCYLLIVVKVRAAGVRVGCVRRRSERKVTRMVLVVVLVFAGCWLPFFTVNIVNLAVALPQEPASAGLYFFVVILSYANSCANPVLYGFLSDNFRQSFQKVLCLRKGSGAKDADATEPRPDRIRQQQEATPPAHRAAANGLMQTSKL", "UniProt P30872, whole entry, species assumed": "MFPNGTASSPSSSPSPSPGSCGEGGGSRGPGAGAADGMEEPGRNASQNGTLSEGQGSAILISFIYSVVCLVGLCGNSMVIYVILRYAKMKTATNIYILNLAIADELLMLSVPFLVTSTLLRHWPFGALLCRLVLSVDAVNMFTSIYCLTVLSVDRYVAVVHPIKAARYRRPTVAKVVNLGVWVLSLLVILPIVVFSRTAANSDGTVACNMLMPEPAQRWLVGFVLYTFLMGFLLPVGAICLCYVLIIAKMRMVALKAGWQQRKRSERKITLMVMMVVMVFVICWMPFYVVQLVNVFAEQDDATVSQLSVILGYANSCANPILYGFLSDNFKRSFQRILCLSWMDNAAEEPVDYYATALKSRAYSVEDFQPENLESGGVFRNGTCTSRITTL", "UniProt P31391, whole entry, species assumed": "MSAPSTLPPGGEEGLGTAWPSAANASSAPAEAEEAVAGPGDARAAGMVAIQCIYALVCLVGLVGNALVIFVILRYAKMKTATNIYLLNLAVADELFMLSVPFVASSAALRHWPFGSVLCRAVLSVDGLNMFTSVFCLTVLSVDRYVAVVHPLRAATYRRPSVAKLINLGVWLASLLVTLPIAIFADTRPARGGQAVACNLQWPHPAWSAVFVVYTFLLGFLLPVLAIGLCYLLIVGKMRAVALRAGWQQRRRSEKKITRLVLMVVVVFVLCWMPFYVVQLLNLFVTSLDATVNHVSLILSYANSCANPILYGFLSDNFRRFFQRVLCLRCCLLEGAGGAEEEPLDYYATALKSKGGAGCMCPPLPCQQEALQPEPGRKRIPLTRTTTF"}, "source": "patent US10214540B2", "about": "“Compound having agonistic activity on somatostatin receptor, and use thereof for medical purposes” (ONO PHARMACEUTICAL CO., LTD., priority 2012, dated 2019)", "origin": "cited, not measured here", "settings_in_all_cases": "reported in background art; cited from earlier work", "key": {"[1]": {"target": "somatostatin receptor subtype 2 (SSTR2) (Homo sapiens, UniProt P30874)"}, "[2]": {"target": "somatostatin receptor subtype 3 (SSTR3) (Homo sapiens, UniProt P32745)"}, "[3]": {"target": "somatostatin receptor subtype 5 (SSTR5) (Homo sapiens, UniProt P35346)"}, "[4]": {"target": "somatostatin receptor subtype 1 (SSTR1) (Homo sapiens, UniProt P30872)"}, "[5]": {"target": "somatostatin receptor subtype 4 (SSTR4) (Homo sapiens, UniProt P31391)"}}}
{"substance": "Octreotide acetate", "values": [{"measurement": "binding affinity to SSTR2 (in words)", "setting": "[1]", "result": "high affinity"}, {"measurement": "binding affinity to SSTR3 (in words)", "setting": "[2]", "result": "moderate affinity"}, {"measurement": "binding affinity to SSTR5 (in words)", "setting": "[3]", "result": "moderate affinity"}, {"measurement": "binding to SSTR1 (in words)", "setting": "[4]", "result": "not to bind"}, {"measurement": "binding to SSTR4 (in words)", "setting": "[5]", "result": "not to bind"}]}
